Laboratory results from patent US6261814A, “Carboxylic acid reductase, and methods of using same” (University of Iowa Research Foundation, priority 1998, dated 2001).

Tested on: O=C(O)c1ccccc1
Experiment: purified protein, by the assay type
Details: other: purified enzyme; mean of three determinations; pH 7.5; 25.0 °C

Substance: carboxylic acid reductase (aryl-aldehyde oxidoreductase) (Nocardia iowensis)
- Km: 645 ± 75 µM
